The values below are quoted from earlier work in US20060136023A1 (priority 2004, published 2006).

By UniProt entry, the sequences of proteins in these tests, tags left out.
UniProt P41143, whole entry, looked up: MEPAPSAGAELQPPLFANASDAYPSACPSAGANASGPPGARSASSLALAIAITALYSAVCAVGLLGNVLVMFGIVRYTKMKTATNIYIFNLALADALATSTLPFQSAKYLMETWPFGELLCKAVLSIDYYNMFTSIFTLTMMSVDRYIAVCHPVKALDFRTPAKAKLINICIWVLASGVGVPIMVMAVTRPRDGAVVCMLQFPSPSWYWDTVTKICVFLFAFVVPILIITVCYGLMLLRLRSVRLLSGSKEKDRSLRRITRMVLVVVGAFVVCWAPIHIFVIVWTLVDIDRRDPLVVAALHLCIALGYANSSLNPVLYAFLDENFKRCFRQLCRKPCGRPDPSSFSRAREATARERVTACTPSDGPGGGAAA

One data set deals with delta receptor (Homo sapiens, UniProt P41143). As to conditions: competitive antagonists at the delta receptor.
For data set [1] the following is noted: when used in animals.

`Oc1ccc2c3c1O[C@H]1c4[nH]c5ccccc5c4C[C@@]4(O)[C@@H](C2)N(CC2CC2)CC[C@]314`: the “block of the respiratory sedation caused by fentanyl” value at delta receptor is reported as “can block the respiratory sedation”.

For “1,3 dimethyl-4-propyl-4-hydroxyphenyl piperdine (cis 3-methyl, 4-propyl)”, in the data set on opiate receptor, the “properties at the opiate receptor” value is on record as “antagonist properties”. In addition, in data set [1], the respiratory sedation entry is recorded as “ceiling effect”.
